Assay results reported in PubChem BioAssay AID504357 (The Scripps Research Institute Molecular Screening Center, 2011).
This is a selection; strong and weak results do not stand in their true shares. Some salts or complexes appear as unconnected parts, following the source record. Activity calls are given as the source filed them. No stated cut-off is given here; in the data, active means inhibition above about 22% (passing the limit was not always enough); inactive means the rest.

The chains behind the UniProt entries cited, without tags or fusion partners.
UniProt P35372, whole entry, looked up: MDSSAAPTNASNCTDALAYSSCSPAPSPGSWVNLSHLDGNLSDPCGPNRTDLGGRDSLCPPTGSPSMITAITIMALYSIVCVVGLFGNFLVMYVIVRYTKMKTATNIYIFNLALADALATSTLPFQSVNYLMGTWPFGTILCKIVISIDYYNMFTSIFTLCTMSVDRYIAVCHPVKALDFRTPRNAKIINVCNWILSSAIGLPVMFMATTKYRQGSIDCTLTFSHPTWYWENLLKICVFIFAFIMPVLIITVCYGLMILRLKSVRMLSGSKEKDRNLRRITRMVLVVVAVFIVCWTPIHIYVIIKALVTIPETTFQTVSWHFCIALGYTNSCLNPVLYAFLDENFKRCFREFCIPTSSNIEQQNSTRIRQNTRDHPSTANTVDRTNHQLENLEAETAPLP
UniProt P41143, whole entry, looked up: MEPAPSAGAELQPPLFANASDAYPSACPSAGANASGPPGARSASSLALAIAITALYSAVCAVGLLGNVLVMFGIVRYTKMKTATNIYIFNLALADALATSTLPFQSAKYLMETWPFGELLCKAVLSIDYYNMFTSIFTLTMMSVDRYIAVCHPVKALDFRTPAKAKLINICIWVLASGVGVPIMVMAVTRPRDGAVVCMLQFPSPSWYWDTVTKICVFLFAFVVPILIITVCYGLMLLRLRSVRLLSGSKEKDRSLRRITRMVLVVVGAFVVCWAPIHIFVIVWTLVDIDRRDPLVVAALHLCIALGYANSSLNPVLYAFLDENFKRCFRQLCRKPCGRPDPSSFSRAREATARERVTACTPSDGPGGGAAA

The molecules below were run against Mu-type opioid receptor (Homo sapiens) + Delta-type opioid receptor (Homo sapiens) (UniProt P35372+P41143) (assay: inverse agonists of MOR-DOR heterodimerization, primary screen, cell-based, luminescence (AID 504357;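 further: 0% = cells with DMSO and 100% = wells without cells with DMSO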)). Details: cell-based MOR-DOR heterodimer luminescence, inverse agonism; at 9.3 µM; stronger effect = higher value.

SMILES	inhibition
CCN(CC)CCn1c(NCc2ccc(OC)cc2)nc2ccccc21	inactive: 6.91%
CCN(CC)CCCOC(=O)C(O)(c1ccccc1)c1ccccc1	inactive: 10.1%
Cc1ccc(S(=O)(=O)NCCC(=O)N2CCN(C/C=C/c3ccccc3)CC2)cc1	inactive: 4.28%
Cc1cc(C)cc(OP(C)(N)=O)c1 (centres undefined)	inactive: 14.2%
COc1ccccc1OP(C)(=O)Nc1cc(Cl)ccc1C (centres undefined)	inactive: 7.38%
COc1ccc(OP(C)(=O)Nc2cccc(F)c2)cc1 (centres undefined)	inactive: 3.14%
COc1ccccc1OP(C)(=O)Nc1ccc(C)cc1 (centres undefined)	inactive: 4.53%
Cc1ccc(NP(C)(=O)Oc2ccccc2)c(C)c1 (centres undefined)	inactive: 5.44%
CCOC(=O)c1ccc(NP(C)(=O)Oc2ccccc2)cc1 (centres undefined)	inactive: -4.64%
O=[N+]([O-])c1ccc2c(c1)C=Nc1ccccc1O2	inactive: -14.8%
CC(C)(C)c1ccc(OP(C)(=O)Nc2ccc(SC(F)(F)F)cc2)cc1 (centres undefined)	inactive: -21.8%
Cc1cccc(C)c1OP(C)(N)=O (centres undefined)	inactive: 3.89%
Cc1n[nH]c(C)c1S(=O)(=O)N1CCC(C(=O)N2CCn3c2nc2ccccc23)CC1	active: 37.7%
COc1cc(C(=O)NCC2(N3CCOCC3)CCCCC2)ccc1OCC(C)C	inactive: -1.52%
O=[N+]([O-])c1cc([N+](=O)[O-])c(Nc2cccnc2)c([N+](=O)[O-])c1	inactive: 4.22%
CP(=O)(Nc1ccccc1Br)Oc1ccccc1 (centres undefined)	inactive: 16.2%
C=CCC1(Nc2ccccc2)CC(C)N(C)CC1C (centres undefined)	inactive: 9.33%
COc1ccccc1OP(C)(=O)Nc1ccccc1 (centres undefined)	inactive: 10.2%
CP(=S)(Nn1cnnc1)Oc1ccccc1 (centres undefined)	inactive: 10.5%
CCCCOc1ccc(C(=O)NCC2(N3CCCCC3)CCCCC2)cc1OC	inactive: 1.83%
O=C(C1CCN(S(=O)(=O)c2cccc3cccnc23)CC1)N1CCn2c1nc1ccccc12	active: 87.4%
CP(=O)(Nc1ccccn1)Oc1ccc(Cl)cc1 (centres undefined)	inactive: 10.4%
CCOC(=O)c1ccc(NP(C)(=O)Oc2ccc(OC)cc2)cc1 (centres undefined)	inactive: -12.9%
CCOP(C)(=S)SCC(=O)NC(C)C(=O)O (centres undefined)	inactive: -0.99%
CP(=O)(NC(=O)Nc1ccccc1)Oc1ccccc1 (centres undefined)	inactive: -6.81%
CCc1ccc(OP(C)(=O)N2CCN(c3ccc([N+](=O)[O-])cc3)CC2)cc1 (centres undefined)	inactive: 8.91%

SMILES	inhibition
Cc1cc(C)cc(OP(C)(=O)Nc2ccc(SC(F)(F)F)cc2)c1 (centres undefined)	inactive: -65.4%
O=C(C1CCN(S(=O)(=O)c2cccc3nsnc23)CC1)N1CCn2c1nc1ccccc12	active: 84.5%
Cc1cccc(C)c1OP(C)(=O)Nc1ccc(SC(F)(F)F)cc1 (centres undefined)	inactive: 0.33%
CP(=O)(Oc1ccccc1)OC(c1ccccc1)C(F)(F)F (centres undefined)	inactive: 7.22%
Cc1nc2ccc3ccccc3c2s1.O=[N+]([O-])c1cc([N+](=O)[O-])c(O)c([N+](=O)[O-])c1	inactive: 18.4%
O=[N+]([O-])c1cc([N+](=O)[O-])c(-c2cnn(-c3ccccc3)c2)c([N+](=O)[O-])c1	inactive: -84.9%
O=[N+]([O-])c1cc([N+](=O)[O-])c(-n2nnc3ccccc32)c([N+](=O)[O-])c1	inactive: 13.4%
CCCOc1ccc(NP(C)(=O)Oc2ccc(Cl)cc2)cc1 (centres undefined)	inactive: -13.1%
CP(=O)(Nc1ccc(SC(F)(F)F)cc1)Oc1ccccc1 (centres undefined)	inactive: -13.6%
CN1CCCCC1COC(=O)C1(O)c2ccccc2CCc2ccccc21 (centres undefined)	inactive: -3.94%
COc1ccccc1OP(C)(=O)Nc1c(C)cccc1C (centres undefined)	inactive: 14.2%
CC1=C2N=C(C=C3N=C(C(C)=C4[N-][C@@](C)([C@@H]5N=C1[C@](C)(CCC(=O)NC[C@@H](C)OP(=O)([O-])O[C@H]1[C@@H](O)[C@@H](n6cnc7cc(C)c(C)cc76)O[C@@H]1CO)[C@H]5CC(N)=O)[C@@](C)(CC(N)=O)[C@@H]4CCC(N)=O)[C@@](C)(CC(N)=O)[C@@H]3CCC(N)=O)C(C)(C)[C@@H]2CCC(N)=O.[C-]#N.[Co+3]	inactive: 13.5%
CN(C)C1(CNC(=O)c2ccc(S(C)(=O)=O)cc2)CCCCC1	inactive: -16.3%
O=[N+]([O-])c1cc([N+](=O)[O-])c(Nc2nnnn2CCO)c([N+](=O)[O-])c1	inactive: 18.4%
CCOC(=O)C(CC)C1=NC(C)(C)Cc2ccccc21.O=[N+]([O-])c1cc([N+](=O)[O-])c(O)c([N+](=O)[O-])c1 (centres undefined)	inactive: 5.52%
CC1=NCCc2c1[nH]c1ccccc21.O=[N+]([O-])c1cc([N+](=O)[O-])c(O)c([N+](=O)[O-])c1	inactive: 2.48%
O=C(C1CCN(S(=O)(=O)c2cnc[nH]2)CC1)N1CCn2c1nc1ccccc12	active: 43.7%
O=C(O)c1cccc(Nc2c([N+](=O)[O-])cc([N+](=O)[O-])cc2[N+](=O)[O-])c1	inactive: 13.4%
O=P(Nc1nccs1)(c1ccccc1)c1nc2ccccc2s1 (centres undefined)	active: 36.2%
Cc1ccc(C)c(NP(C)(=O)Oc2ccccc2)c1 (centres undefined)	inactive: -3.51%
Cc1cc(C)cc(OP(C)(=O)Nc2ccccn2)c1 (centres undefined)	inactive: 12.9%
CP(=O)(Nc1cccc(Br)c1)Oc1ccccc1 (centres undefined)	inactive: 11.9%
CCOC(=O)c1ccc(NP(C)(=O)Oc2cc(C)cc(C)c2)cc1 (centres undefined)	inactive: -2.98%
Cc1cc(C)cc(OP(C)(=O)Nc2ccc(C)cc2C)c1 (centres undefined)	inactive: -17.1%
COc1cc(C(=O)NCC2(N3CCOCC3)CCCCC2)cc(Cl)c1OC(C)C	inactive: -19.6%
COc1ccccc1OP(C)(=O)Nc1cccc(Br)c1 (centres undefined)	inactive: -5.15%

SMILES	inhibition
COc1ccc2c(c1O)-c1c(O)c(OC)cc3c1[C@H](C2)[N+](C)(C)CC3.O=[N+]([O-])c1cc([N+](=O)[O-])c([O-])c([N+](=O)[O-])c1[O-]	inactive: 3.82%
O=C(OC1CN2CCC1CC2)c1ccc([N+](=O)[O-])cc1 (centres undefined)	inactive: -20%
O=C(OCCN1CCN(CCOCc2ccccc2)CC1)C(O)(c1ccccc1)c1ccccc1	inactive: 5.12%
CP(=O)(Nc1ccccc1F)Oc1ccccc1 (centres undefined)	inactive: -4.52%
CC(C)c1ccc(OP(C)(=O)Nc2ccc(SC(F)(F)F)cc2)cc1 (centres undefined)	inactive: -24.4%
CP(=O)(Nc1ccccc1)Oc1ccc(F)cc1 (centres undefined)	inactive: 3.21%
CCCCCOc1ccc(NP(C)(=O)Oc2ccc(Cl)cc2Cl)cc1 (centres undefined)	inactive: -13.6%
O=[N+]([O-])c1cc([N+](=O)[O-])c(OC2CCCCC2O)c([N+](=O)[O-])c1 (centres undefined)	inactive: 4.21%
Cc1c([N+](=O)[O-])cc([N+](=O)[O-])c(Br)c1[N+](=O)[O-]	inactive: 12.6%
CCN(CC)CCCOC(=O)C(O)(c1ccccc1)C1CCCCC1 (centres undefined)	inactive: 8.35%
CCOC(=O)c1ccc(NP(C)(=O)Oc2ccc(F)cc2)cc1 (centres undefined)	inactive: 0.2%
COc1ccc(OP(C)(=O)Nc2ccc(SC(F)(F)F)cc2)cc1 (centres undefined)	inactive: -18.4%
Cc1c(C(c2ccc3c(c2)OCO3)c2c(C)n(C)n(-c3ccccc3)c2=O)c(=O)n(-c2ccccc2)n1C.O=[N+]([O-])c1cc([N+](=O)[O-])c(O)c([N+](=O)[O-])c1	inactive: 6.86%
O=[N+]([O-])c1ccc(OP2(=O)COCCO2)cc1 (centres undefined)	inactive: 8.49%
O=[N+]([O-])c1cc([N+](=O)[O-])c(NCC2CCS(=O)(=O)C2)c([N+](=O)[O-])c1 (centres undefined)	inactive: -21.1%
Cc1cc(-c2cccc3ccccc23)c(C)cn1.O=[N+]([O-])c1cc([N+](=O)[O-])c(O)c([N+](=O)[O-])c1	inactive: 21.2%
CN(C)CCOC(=O)C(O)(c1ccccc1)C1CCCCC1 (centres undefined)	inactive: 5.51%
COc1ccc(NP(C)(=O)Oc2ccccc2OC)cc1 (centres undefined)	inactive: 2.81%
COc1ccc(OP(C)(=O)Nc2cccc(Br)c2)cc1 (centres undefined)	inactive: 22.9%
CN(C)C1(CNC(=O)c2ccc(Cl)c(S(N)(=O)=O)c2)CCCCC1	inactive: -315%
Cc1ccccc1NP(C)(=O)Nc1ccccc1C	inactive: 3.45%
CP(=O)(Nc1ccc2c(c1)OCCO2)Oc1ccccc1 (centres undefined)	inactive: 2.39%
CCOP(C)(=S)SCC(=O)NC(C)(CC)C(=O)O (centres undefined)	inactive: 4.98%
CP(=O)(Nc1ccc(SC(F)(F)F)cc1)Oc1ccc(F)cc1 (centres undefined)	inactive: -26.9%
CN(C)C(=O)c1c([N+](=O)[O-])cc([N+](=O)[O-])cc1[N+](=O)[O-]	inactive: -52.3%
CCCCN1CCC(C#N)(Nc2ccccc2)CC1	inactive: 11.1%

SMILES	inhibition
COc1ccccc1OP(C)(=O)Nc1ccccc1Br (centres undefined)	inactive: 1.87%
CC(C)(C)c1ccc(OP(C)(=O)O)cc1	inactive: 0.79%
CP(=O)(Nc1ccc(Cl)cc1)Oc1ccc(F)cc1 (centres undefined)	inactive: 7.2%
COc1ccccc1OP(C)(=O)Nc1c(C)n(C)n(-c2ccccc2)c1=O (centres undefined)	inactive: 15.9%
O=C(OCCCN1CCCC1)C(O)(c1ccccc1)C1CCCCC1 (centres undefined)	inactive: 16.8%
CP(=O)(Oc1ccccc1)N1CCOC1=O (centres undefined)	inactive: 13.5%
CCc1ccc(OP(C)(=O)Nc2cccnc2)cc1 (centres undefined)	inactive: -0.67%
CCN(CC)CC(O)COC(=O)C(O)(c1ccccc1)C1CCCCC1 (centres undefined)	inactive: 12.3%
COc1ccc(OP(C)(=O)Nc2ccc(Br)cc2)cc1 (centres undefined)	inactive: 1.04%
CCOC(=O)c1ccc(NP(C)(=O)Oc2ccc(Cl)cc2)cc1 (centres undefined)	inactive: 4.33%
CP(=O)(OC12CC3CC(CC(C3)C1)C2)OC12CC3CC(CC(C3)C1)C2	inactive: -38.5%
CCCCCCCCCCCCCCCC1C[N+](C)(C)CCOP(C)(=O)O1 (centres undefined)	inactive: 10.6%
CP(=O)(Nc1ccc(Cl)cc1Cl)Oc1ccccc1 (centres undefined)	inactive: 2.89%
CP(=O)(OCCOc1ccccc1)OCCOc1ccccc1	inactive: 21.8%
COc1ccccc1OP(C)(=O)Nc1ccc(C)c(C)c1 (centres undefined)	inactive: 8.11%
COc1ccc(OP(C)(=O)Nc2ccccc2Br)cc1 (centres undefined)	inactive: 7.22%
O=C1C(O)=C([N+](=O)[O-])C(=O)C(O)=C1[N+](=O)[O-]	inactive: 15.8%
Cc1cc(C)cc(OP(C)(=O)Nc2cccc(C(F)(F)F)c2)c1 (centres undefined)	inactive: 2.23%
CP(=O)(Nc1ccccn1)Oc1ccccc1 (centres undefined)	inactive: 4.28%
COc1ccccc1OP(C)(=O)Nc1ccc(C)cc1C (centres undefined)	inactive: 15%
CCc1ccc(OP(C)(=O)O)cc1	inactive: 3.91%
Cc1c(NP(C)(=O)Oc2ccc(C(C)C)cc2)c(=O)n(-c2ccccc2)n1C (centres undefined)	inactive: 8.86%
O=[N+]([O-])c1cc([N+](=O)[O-])c(Nc2ccccn2)c([N+](=O)[O-])c1	inactive: -13.3%
COc1ccc(OP(C)(=O)Nc2ccccn2)cc1 (centres undefined)	inactive: 2.93%
CN(C)CCOC(=O)C(O)(c1ccccc1)C1CCCC1 (centres undefined)	inactive: 14.8%
COc1ccccc1OP(C)(=O)Nc1ccc(Br)cc1 (centres undefined)	inactive: 13.7%
